Test results reported in patent US20240335548A1, “MACROMOLECULES” (Starpharma Pty Ltd, priority 2011, published 2024).

Tests used:
[1] = Water solubility study on drug loaded dendrimers; assay type: physicochemical
Experimental: Protocol: To 30 mg of dendrimer (freeze-dried from water) was added 100 μL of deionised water. After mixing for 10 minutes, additional aliquots of water (10-30 μL per addition) were added with vortexing and incubation for 10 mins until full dissolution was obtained. This amount is represented in Table 1 as the water solubility of the dendrimer. The equivalent drug solubility is determined by multiplying the % drug loading/100 and is represented in Table 1 (column 3) as Equivalent drug solubility on dendrimer. Finally, the fold increase is obtained by dividing the Equivalent drug solubility on dendrimer by the solubility of the drug and is represented in Table 1 (column 4).

[2] = Plasma stability study: docetaxel release in mouse plasma; assay type: in vitro ADME
[3] = for Mean Liver Weights (g) (sd) / Mean Spleen Weights (g) (sd): day 16, one day after final dose
[4] = Toxicity studies in rats (neutropenia, hematology, microscopic changes)
[5] = compared with SPL9049
[6] = Particle sizing using Dynamic Light Scattering; assay type: physicochemical
[7] = deionised water, until full dissolution
[8] = equivalent drug solubility divided by solubility of the drug
[9] = water solubility x % drug loading/100
[10] = 0.5 hours, mouse plasma, 37° C.
[11] = 2.5 hours, mouse plasma, 37° C.
[12] = Day 1 (baseline, before dosing)
[13] = Day 11, dosing days 1, 8 at MTD doses

BHALys[Lys]32[α-4-HSBA-4Aba-DTX]32[ε-PEG1100]32 [1 (b)]
Water solubility of dendrimer [1, 7]: 186 mg/mL | Fold increase in drug solubility [1, 8]: 4800 | Equivalent drug solubility on dendrimer [1, 9]: 24 mg/mL | Docetaxel release in plasma [2, 10]: 0 percentage of total docetaxel | Docetaxel release in plasma [2, 11]: 3 percentage of total docetaxel | Docetaxel release in plasma ([2]; 22 hours, mouse plasma, 37° C.): 14.5 percentage of total docetaxel

BHALys[Lys]32[α-4-HSBA-Cp-DTX]32[ε-PEG1100]32 [Example 4 (c)]
Mean Lymphocytes (sd) [3, 12]: 4.95 (2.25) × 10^9 cells/L | Mean Neutrophils (sd) [3, 12]: 1.07 (0.57) × 10^9 cells/L | Mean WBC (sd) [3, 12]: 4.95 (2.25) × 10^9 cells/L | Mean Lymphocytes (sd) [3, 13]: 5.37 (1.72) × 10^9 cells/L | Mean Neutrophils (sd) [3, 13]: 1.27 (0.64) × 10^9 cells/L | Mean WBC (sd) [3, 13]: 5.37 (1.72) × 10^9 cells/L | Mean Liver Weights (g) (sd) [3]: 0.762 g | Mean Spleen Weights (g) (sd) [3]: 0.087 g | Fold increase in drug solubility [1]: 4400

BHALys[Lys]32[α-DGA-Cabazitaxel]32†[ε-PEG˜2100]32‡ [SPL9048]
neutrophil rebound at day 14 ([4]; 1 mg/kg): virtually no rebound | neutropenia (neutrophil values, day 7 in particular) ([4]; 1 mg/kg, male and female rats, FIGS. 5 and 6): lesser/no dip in values | treatment-related microscopic changes ([4]; 2.5 mg/kg): Treatment-related microscopic changes were observed in the thymus, bone marrow, and spleen | neutropenia at day 5 ([4]; 2.5 mg/kg active agent): less neutropenic | test article related hematology changes ([4]; 2.5 mg/kg, by Day 2 through Day 7): decreases in white blood cells, neutrophils, lymphocytes, monocytes, eosinophil, platelets, and reticulocytes | stability in solution (e.g. with regard to precipitation) [5]: increased stability in solution

BHALys[Lys]32[α-DGA-DTX]32[ε-PEG1100]32 [Example 3 (b)]
Mean Lymphocytes (sd) [3, 12]: 5.79 (1.53) × 10^9 cells/L | Mean Neutrophils (sd) [3, 12]: 1.01 (0.53) × 10^9 cells/L | Mean WBC (sd) [3, 12]: 5.79 (1.53) × 10^9 cells/L | Mean Lymphocytes (sd) [3, 13]: 3.99 (0.29) × 10^9 cells/L | Mean Neutrophils (sd) [3, 13]: 1.84 (0.18) × 10^9 cells/L | Mean WBC (sd) [3, 13]: 3.99 (0.29) × 10^9 cells/L | Mean Liver Weights (g) (sd) [3]: 0.763 g | Mean Spleen Weights (g) (sd) [3]: 0.077 g | Fold increase in drug solubility [1]: 5600

BHALys[Lys]32[α-GFLG-Glu-DTX]32[ε-PEG1100]32 [15 (c)]
Equivalent drug solubility on dendrimer [1]: 45 mg/mL | Fold increase in drug solubility [1]: 9000 | Water solubility of dendrimer [1]: 180 mg/mL

BHALys[Lys]32[α-GGG-Glu-DTX]32[ε-PEG1100]32 [14 (c)]
Equivalent drug solubility on dendrimer [1]: 57 mg/mL | Fold increase in drug solubility [1]: 11400 | Water solubility of dendrimer [1]: 183 mg/mL

BHALys[Lys]32[α-GILGVP-Glu-DTX]32[ε-PEG1100]32 [Example 16]
Equivalent drug solubility on dendrimer [1]: 59 mg/mL | Fold increase in drug solubility [1]: 11800 | Water solubility of dendrimer [1]: 205 mg/mL | Docetaxel release in plasma [2]: 0 percentage of total docetaxel | release of docetaxel in plasma [2]: do not substantially release docetaxel in plasma

BHALys[Lys]32[α-GILGVP-Glu-DTX]32[ε-t-PEG2300]32 [Example 17]
Equivalent drug solubility on dendrimer [1]: 67 mg/mL | Fold increase in drug solubility [1]: 13400 | Water solubility of dendrimer [1]: 373 mg/mL | release of docetaxel in plasma [2]: do not substantially release docetaxel in plasma

BHALys[Lys]32[α-PDT-DTX]32[ε-PEG1100]32 [9 (b)]
Water solubility of dendrimer [1, 7]: 63 mg/mL | Fold increase in drug solubility [1, 8]: 4000 | Equivalent drug solubility on dendrimer [1, 9]: 20 mg/mL | Docetaxel release in plasma [2, 10]: 0.5 percentage of total docetaxel | Docetaxel release in plasma [2, 11]: 1.5 percentage of total docetaxel | Docetaxel release in plasma ([2]; 22 hours, mouse plasma, 37° C.): 1 percentage of total docetaxel

BHALys[Lys]32[α-PEG2-DTX]32[ε-PEG1100]32 [10 (b)]
Water solubility of dendrimer [1, 7]: 138 mg/mL | Fold increase in drug solubility [1, 8]: 8600 | Equivalent drug solubility on dendrimer [1, 9]: 43 mg/mL | Docetaxel release in plasma [2, 10]: 10 percentage of total docetaxel | Docetaxel release in plasma [2, 11]: 21 percentage of total docetaxel | Docetaxel release in plasma ([2]; 22 hours, mouse plasma, 37° C.): 75 percentage of total docetaxel

BHALys[Lys]32[α-TDA-DTX]32[ε-PEG1100]32 [Example 8 (c)]
Mean Lymphocytes (sd) [3, 12]: 6.59 (0.62) × 10^9 cells/L | Mean Neutrophils (sd) [3, 12]: 0.93 (0.51) × 10^9 cells/L | Mean WBC (sd) [3, 12]: 6.59 (0.62) × 10^9 cells/L | Mean Lymphocytes (sd) [3, 13]: 4.27 (0.35) × 10^9 cells/L | Mean Neutrophils (sd) [3, 13]: 1.76 (0.15) × 10^9 cells/L | Mean WBC (sd) [3, 13]: 4.27 (0.35) × 10^9 cells/L | Mean Liver Weights (g) (sd) [3]: 0.780 g | Mean Spleen Weights (g) (sd) [3]: 0.092 g | Fold increase in drug solubility [1]: 8200 | particle size, range of concentration dependent averages [6]: 8.9-10.1 nm

Read-outs that look alike come from different tables or passages of the source.
